# Target: human RXFP1 (Homo sapiens, UniProt Q9HBX9)
# The chains behind the UniProt entries cited, without tags or fusion partners.
# UniProt Q9HBX9, whole entry: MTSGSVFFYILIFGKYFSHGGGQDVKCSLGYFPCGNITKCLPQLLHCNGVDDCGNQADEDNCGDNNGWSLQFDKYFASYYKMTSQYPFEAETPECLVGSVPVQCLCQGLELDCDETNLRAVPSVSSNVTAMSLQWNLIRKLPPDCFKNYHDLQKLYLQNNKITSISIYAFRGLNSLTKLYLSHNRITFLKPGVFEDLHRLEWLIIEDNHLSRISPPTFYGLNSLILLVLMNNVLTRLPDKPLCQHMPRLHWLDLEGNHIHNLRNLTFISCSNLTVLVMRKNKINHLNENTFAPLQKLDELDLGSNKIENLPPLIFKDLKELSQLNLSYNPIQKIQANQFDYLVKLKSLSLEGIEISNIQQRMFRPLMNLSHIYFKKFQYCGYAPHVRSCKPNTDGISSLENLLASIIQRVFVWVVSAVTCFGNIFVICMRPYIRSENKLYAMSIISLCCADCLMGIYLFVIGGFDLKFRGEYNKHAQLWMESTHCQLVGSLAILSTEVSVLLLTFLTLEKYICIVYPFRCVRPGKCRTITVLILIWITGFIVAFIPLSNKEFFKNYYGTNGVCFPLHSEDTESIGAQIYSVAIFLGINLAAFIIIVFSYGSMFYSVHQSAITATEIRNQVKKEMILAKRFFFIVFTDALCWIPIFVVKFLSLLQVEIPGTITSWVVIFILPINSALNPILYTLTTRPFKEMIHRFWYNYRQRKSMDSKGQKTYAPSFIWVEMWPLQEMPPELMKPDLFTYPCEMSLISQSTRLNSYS
# Experiment: human RXFP1 (hRXFP1) HEK293 cAMP assay (HTRF)
# Type: cell-based
# Conditions: read-out: cAMP hRXFP1 HEK293 Assay EC50, HEK293 cells stably expressing human RXFP1, 30 min at room temperature
structure (smiles),measurement,value
COc1ncc(COCC2(O)CC2)cc1C(=O)N[C@H]1[C@@H](C(=O)NCC(C)(C)C)[C@H]2CC[C@@H]1/C2=C\C1CC1,EC50,870 nM
